{"sequences": {"note": "Protein sequences, listed by entry. Tags and fused reporters are not part of them.", "UniProt P34981, whole entry": "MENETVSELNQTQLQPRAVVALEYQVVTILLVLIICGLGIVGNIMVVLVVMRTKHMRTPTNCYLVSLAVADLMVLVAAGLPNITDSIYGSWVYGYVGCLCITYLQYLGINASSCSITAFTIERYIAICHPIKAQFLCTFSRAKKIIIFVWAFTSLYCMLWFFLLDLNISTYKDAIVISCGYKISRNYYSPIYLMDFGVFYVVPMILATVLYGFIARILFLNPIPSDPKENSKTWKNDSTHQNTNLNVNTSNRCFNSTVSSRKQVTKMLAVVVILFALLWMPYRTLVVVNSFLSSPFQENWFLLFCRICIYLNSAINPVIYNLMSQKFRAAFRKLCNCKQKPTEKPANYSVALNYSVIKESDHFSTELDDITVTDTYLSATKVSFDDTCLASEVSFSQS"}, "source": "PubChem BioAssay AID493084", "about": "(National Center for Advancing Translational Sciences (NCATS), 2011)", "note": "Only a part is listed here, and it is no random draw. Calls of active or inactive are those of the source. Rule as the data show it: active = activation above about 30%; inactive = the rest."}
{"molecular_target": "Thyrotropin-releasing hormone receptor (Homo sapiens) (UniProt P34981)", "assay": "qHTS for Small Molecule Agonists and Allosteric Enhancers of Human TRH Receptor: Primary Screen for Agonists; also: 0% is about no effect.", "conditions": "TRHR cells, calcium flux fluo-8, FDSS agonist mode; at 2 µM; active compounds read high", "from_the_text": "NIH Chemical Genomics Center [NCGC] NIH Molecular Libraries Probe Centers Network [MLPCN] MLPCN Grant: MH089816-01 Assay Submitter (PI): Marvin Gershengorn This project aims to identify small drug-like molecules that activate (agonists) the thyrotropin releasing hormone (TRH) receptor (TRHR) or enhance its TRH-stimulated activity (allosteric enhancers). TRHR, a drug-accessible cell surface receptor expressed in specific brain regions, and its ligand TRH have been implicated in several central nervous system disorders, including depression and anxiety. Small molecule TRHR agonists or allosteric enhancers that are metabolically stable and able to cross the blood-brain barrier might serve as probes to elucidate the roles of brain TRH receptors in animal models, and might be valuable as lead compounds for the development of drugs to treat patients with central nervous system disorders. Upon TRHR-Gq activation in TRHR cells, intracellular calcium is released from stores in the endoplasmic reticulum. […] This primary screen measures compound-induced activation of calcium release.\nFor the HTS assay freshly prepared cells are plated at a density of 2000/well in 3 ul of complete DMEM medium containing 10% serum in 1536-well plates and cultured over night at 37 C in a humidified incubator with 5% CO2. The next day, 2 ul of a no wash calcium dye (ABD Bioquest) was added to the cells and plates were incubated at room temperature for 1 hour. For the assay, assay plates were loaded into the FDSS kinetic plate reader. A 10 cycle (1 second/cycle) baseline measurement is taken and then the FDSS online 1536 pintool delivers 23 nl of compound library (as well as TRH controls) to the plate. The plate is measured for kinetically at 1 cycle/sec for 180 seconds and is considered to be the agonist portion of the assay (eg, compounds which activate a positive calcium response during this portion are flagged as potential agonists). Following the 180 second read, 1 ul of either an EC20 (positive modulation assay) is delivered by an onboard pipette head. Measurements are taken kinetically for an additional 180 seconds. TRHR FDSS Screening Protocol 1. Reagent, 3 uL 2000 cells/well 1536 TC treated Black plate in media containing 10% FCS 2. Time, 18 hours, 33.5C 5% CO2 (cells grown at 37C) 3. Reagent, 2 uL ABD fluo-8 Ca dye 4. Time, 30 min-1.5hrs hours, Room temp (6 plates/batch) 5. Detector, EX 480/EM 530C, FDSS 10 cycles baseline (1sec/cycle) 6. Compound, 23 nL of stock solution from library 7. Detector, EX 480/EM 530C, FDSS […] (1sec/cycle) Agonist mode 8. Compound, 1 ul EC20 of TRH made up in HEPES HBSS, 10 nM final 9. Detector, EX 480/EM 530C, FDSS 100 cycles (1sec/cycle) Potentiator mode"}
{"smiles": "COc1ccccc1OP(C)(=O)Nc1ccc(Br)cc1", "note": "(stereo not drawn)", "activation": "inactive: -0.0451%"}
{"smiles": "CCc1ccc(OP(C)(=O)O)cc1", "activation": "inactive: -1.15%"}
{"smiles": "CP(=O)(Nc1ccccn1)Oc1ccccc1", "note": "(stereo not drawn)", "activation": "inactive: -2.2%"}
{"smiles": "COc1ccccc1OP(C)(=O)Nc1ccc(C)cc1C", "note": "(stereo not drawn)", "activation": "inactive: -0.876%"}
{"smiles": "O=[N+]([O-])c1cc([N+](=O)[O-])c(Nc2ccccn2)c([N+](=O)[O-])c1", "activation": "inactive: 2.98%"}
{"smiles": "Cc1c(NP(C)(=O)Oc2ccc(C(C)C)cc2)c(=O)n(-c2ccccc2)n1C", "note": "(stereo not drawn)", "activation": "inactive: -0.589%"}
{"smiles": "CC(C)c1ccc(OP(C)(=O)Nc2ccc(SC(F)(F)F)cc2)cc1", "note": "(stereo not drawn)", "activation": "inactive: 0.296%"}
{"smiles": "CP(=O)(Nc1ccccc1F)Oc1ccccc1", "note": "(stereo not drawn)", "activation": "inactive: 0.134%"}
{"smiles": "O=C(OCCN1CCN(CCOCc2ccccc2)CC1)C(O)(c1ccccc1)c1ccccc1", "activation": "inactive: -0.526%"}
{"smiles": "COc1ccc(OP(C)(=O)Nc2ccc(SC(F)(F)F)cc2)cc1", "note": "(stereo not drawn)", "activation": "inactive: 1.83%"}
{"smiles": "CCOC(=O)c1ccc(NP(C)(=O)Oc2ccc(F)cc2)cc1", "note": "(stereo not drawn)", "activation": "inactive: 1%"}
{"smiles": "CCCCCOc1ccc(NP(C)(=O)Oc2ccc(Cl)cc2Cl)cc1", "note": "(stereo not drawn)", "activation": "inactive: 0.295%"}
{"smiles": "CP(=O)(Nc1ccccc1)Oc1ccc(F)cc1", "note": "(stereo not drawn)", "activation": "inactive: -0.299%"}
{"smiles": "CCN(CC)CCCOC(=O)C(O)(c1ccccc1)C1CCCCC1", "note": "(stereo not drawn)", "activation": "inactive: 0.191%"}
{"smiles": "COc1ccc(NP(C)(=O)Oc2ccccc2OC)cc1", "note": "(stereo not drawn)", "activation": "inactive: 0.003%"}
{"smiles": "CN(C)CCOC(=O)C(O)(c1ccccc1)C1CCCCC1", "note": "(stereo not drawn)", "activation": "inactive: 0.561%"}
{"smiles": "COc1ccc(OP(C)(=O)Nc2cccc(Br)c2)cc1", "note": "(stereo not drawn)", "activation": "inactive: -0.512%"}
{"smiles": "Cc1cc(-c2cccc3ccccc23)c(C)cn1.O=[N+]([O-])c1cc([N+](=O)[O-])c(O)c([N+](=O)[O-])c1", "activation": "inactive: -1.44%"}
{"smiles": "O=[N+]([O-])c1ccc(OP2(=O)COCCO2)cc1", "note": "(stereo not drawn)", "activation": "inactive: 1.13%"}
{"smiles": "CCOP(C)(=S)SCC(=O)NC(C)(CC)C(=O)O", "note": "(stereo not drawn)", "activation": "inactive: 0.574%"}
{"smiles": "CP(=O)(Nc1ccc(SC(F)(F)F)cc1)Oc1ccc(F)cc1", "note": "(stereo not drawn)", "activation": "inactive: 0.862%"}
{"smiles": "Cc1ccccc1NP(C)(=O)Nc1ccccc1C", "activation": "inactive: -0.129%"}
{"smiles": "CP(=O)(Nc1ccc2c(c1)OCCO2)Oc1ccccc1", "note": "(stereo not drawn)", "activation": "inactive: -0.123%"}
